Reference: ChEMBL document CHEMBL3351997, “Synthesis of novel tylophorine derivatives and evaluation of their anti-inflammatory activity” (ACS Med Chem Lett, 2014)

Experiments:
T-cell = assay: Induction of Foxp3 expression in B6 Foxp3-GFP mouse CD4-positive T cells assessed as increase in iTregs at 100 nM after 3 days by flow cytometry
[1] = Antiinflammatory activity against BALB/c mouse splenocytes assessed as inhibition of LPS-induced TNFalpha production after 4 hrs by ELISA; details: splenocyte, strain BALB/c
RAW264.7 [2] = assay: Cytotoxicity against mouse RAW264.7 cells after 48 hrs by MTT assay; type: cell-based
Method in brief: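 Raw 264.7 murine macrophages were cultured with a range of compound concentrations for 48 h, with vehicle-treated cells as control. The 50% cytotoxic concentration (CC50) was determined, with values representative of three experiments.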

[3] = Antiinflammatory activity against BALB/c mouse splenocytes assessed as inhibition of LPS-induced TNFalpha production after 24 hrs by ELISA; details: splenocyte, strain BALB/c
RAW264.7 [4] = assay: Antiinflammatory activity against mouse RAW264.7 cells assessed as inhibition of LPS-induced TNFalpha production after 6 hrs by ELISA

Compound | Activity (T-cell) | other results
COc1cc2c3c(c4cc(OC)c(OC)cc4c2cc1OC)CN1CCCC1C3.O=C(O)CC(O)C(=O)O (configuration not stated) | 4% | –
COc1cc2c3c(c4cc(OC)c(OC)cc4c2cc1OC)CN1CCCC1C3.O=C(O)CCC(=O)O (configuration not stated) | 48% | –
CC(O)C(=O)O.COc1cc2c3c(c4cc(OC)c(OC)cc4c2cc1OC)CN1CCCC1C3 (configuration not stated) | 7% | –
Br.COc1cc2c3c(c4cc(OC)c(OC)cc4c2cc1OC)CN1CCCC1C3 (configuration not stated) | 40% | –
COc1cc2c3c(c4cc(OC)c(OC)cc4c2cc1OC)CN1CCCC1C3.O=C(O)C(O)C(O)C(=O)O (configuration not stated) | 32% | –
COc1cc2c3c(c4cc(OC)c(OC)cc4c2cc1OC)CN1CCCC1C3.Cl (configuration not stated) | 9% | –
COc1cc2c3c(c4cc(OC)c(OC)cc4c2cc1OC)CN1CCC[C@@H]1C3 | 4% | IC50 [1]: 208 nM; IC50 (RAW264.7 [2]): 823 nM; IC50 [3]: 1220 nM; IC50 (RAW264.7 [4]): 430 nM
COc1cc2c3c(c4cc(OC)c(OC)cc4c2cc1OC)CN1CCCC1C3.O=C(O)CC(O)(CC(=O)O)C(=O)O (configuration not stated) | 0.1% | –
COc1cc2c3c(c4cc(OC)c(OC)cc4c2cc1OC)CN1CCC[C@H]1C3 [(S)-TYLOPHORINE] | – | IC50 [1]: 55 nM; IC50 (RAW264.7 [2]): 274 nM; IC50 [3]: 1130 nM; IC50 (RAW264.7 [4]): 78 nM
COc1cc2c3c(c4cc(OC)c(OC)cc4c2cc1OC)CN1CCCC1C3.O=[N+]([O-])c1cc([N+](=O)[O-])c(O)c([N+](=O)[O-])c1 (configuration not stated) | 47% | –
